Amino acid sequences for entries named in this document (tags omitted). A change or cut given only in a name is not applied to a line headed by its entry.
UniProt P21452, whole entry: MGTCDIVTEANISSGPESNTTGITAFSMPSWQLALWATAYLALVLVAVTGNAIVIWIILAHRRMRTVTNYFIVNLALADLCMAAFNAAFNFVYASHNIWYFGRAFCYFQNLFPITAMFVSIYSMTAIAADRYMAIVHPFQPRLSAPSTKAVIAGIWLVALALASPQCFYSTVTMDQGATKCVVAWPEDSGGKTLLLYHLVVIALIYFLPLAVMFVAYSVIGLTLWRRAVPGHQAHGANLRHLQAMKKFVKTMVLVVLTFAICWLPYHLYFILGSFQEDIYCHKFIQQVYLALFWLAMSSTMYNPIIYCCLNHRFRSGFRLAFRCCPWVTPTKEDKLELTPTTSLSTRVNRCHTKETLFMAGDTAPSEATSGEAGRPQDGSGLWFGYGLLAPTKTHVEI
UniProt P43116: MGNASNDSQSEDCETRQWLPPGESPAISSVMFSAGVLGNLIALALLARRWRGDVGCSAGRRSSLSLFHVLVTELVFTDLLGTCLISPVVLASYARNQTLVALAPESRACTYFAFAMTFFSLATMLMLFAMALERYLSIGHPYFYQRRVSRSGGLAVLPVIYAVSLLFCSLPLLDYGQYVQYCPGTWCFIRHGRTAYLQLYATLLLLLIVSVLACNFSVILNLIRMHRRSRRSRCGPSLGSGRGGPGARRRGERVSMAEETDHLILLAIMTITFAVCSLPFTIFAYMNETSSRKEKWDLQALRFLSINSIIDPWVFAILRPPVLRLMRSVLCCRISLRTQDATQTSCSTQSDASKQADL

According to ChEMBL document CHEMBL3774372, “Design, physico-chemical properties and biological evaluation of some new N-[(phenoxy)alkyl]- and N-{2-[2-(phenoxy)ethoxy]ethyl}aminoalkanols as anticonvulsant agents” (Bioorg Med Chem, 2016):

Legend:
Substance-K receptor = Substance-K receptor (Homo sapiens, UniProt P21452); assay: Displacement of [125I]NKA from human recombinant NK2 receptor expressed in CHO cells; format: cell-based
[1] = target: Prostaglandin E2 receptor EP2 subtype (Homo sapiens, UniProt P43116); assay: Displacement of [3H]PGE2 from human recombinant prostanoid EP2 receptor expressed in HEK293 cells; format: cell-based

CCCCC(NC(=O)[C@H](CC(C)C)NC(=O)CNC(=O)[C@@H](NC(=O)[C@H](Cc1ccccc1)NC(=O)[C@H](CO)NC(=O)[C@@H](N)CC(=O)O)C(C)C)C(N)=O (some centres not stated)
IC50 (Substance-K receptor): 3.5 nM

CCCCC[C@H](O)/C=C/[C@H]1[C@H](O)CC(=O)[C@@H]1C/C=C\CCCC(=O)O [DINOPROSTONE]
IC50 [1]: 2.6 nM
